Test results as given in US11351221B2, “SMAC mimetic” (Medivir AB, priority 2009, dated 2022).

Format: in vivo
Details: rat, 5 mg/Kg, QDx4 i.v. bolus
Experimental: Body weight loss (BWL), mortality and additional toxicity data were generated substantially as follows. Sprague-Dawley rats were dosed daily (QD×4, i.v. bolus slow push) with Compounds 15, 4 and 5. Body weights were taken on day 4 and are shown as percent change from day 1. Compounds 4 and 5 were administered at 0.3 mg/Kg, 1 mg/Kg, or 3 mg/Kg; Compound 15 was administered at 1, 5, or 10 mg/Kg.

CC[C@H](NC(=O)[C@H](C)NC)C(=O)N1C[C@@H](O)C[C@H]1Cc1c(-c2[nH]c3cc(F)ccc3c2C[C@@H]2C[C@H](O)CN2C(=O)[C@H](CC)NC(=O)[C@H](C)NC)[nH]c2cc(F)ccc12 [Compound 15, N-{1S-[2R-(6,6′-Difluoro-3′-{4S-hydroxy-1-[2S-(2S-methylamino-propionylamino)-butyryl]-pyrrolidin-2R-ylmethyl}-1H,1′H-[2,2′]biindolyl-3-ylmethyl)-4S-hydroxy-pyrrolidine-1-carbonyl]-propyl}-2S-methylamino-propionamide]
Mortality: No mortality was observed
